Measured values taken from ChEMBL document CHEMBL1121943, “Benzeneacetamide amines: structurally novel non-m mu opioids” (1982).

Experiments:
Mus musculus [1] = species: Mus musculus; assay: Tested for effective dose required to produce morphine antagonist activity in mice
Mus musculus [2] = species: Mus musculus; assay: Tested for effective dose required to produce sedative activity in mice by inclined screen method
Mus musculus [3] = species: Mus musculus; assay: Tested for effective dose required to produce antinociceptive activity in mice by tail flick method
Mus musculus [4] = species: Mus musculus; assay: Tested for effective dose required to produce antinociceptive activity in mice by HCl writhing method
Mus musculus [5] = species: Mus musculus; assay: Tested for effective dose required to produce antinociceptive activity in mice by tail pinch method

Q: Which ED50 (Mus musculus [1]) does the source give for `CN(C)[C@@H]1CCCC[C@H]1N(C)C(=O)Cc1ccc(Cl)c(Cl)c1` here?
A: Its ED50 is over 100 mg/kg.

Q: And the ED50 (Mus musculus [2])?
A: The ED50 was over 100 mg/kg.

Q: Which ED50 (Mus musculus [1]) does the source give for `CN(C(=O)Cc1ccc(Cl)c(Cl)c1)C1CCCCC1N1CCCC1` (configuration not stated) here?
A: Its ED50 is over 100 mg/kg.

Q: What about the ED50 (Mus musculus [3]) of the same compound?
A: Its ED50 is 2.5 mg/kg.

Q: What about the ED50 (Mus musculus [4]) of the same compound?
A: Its ED50 is 2.5 mg/kg.

Q: And the ED50 (Mus musculus [2])?
A: Its ED50 is 71 mg/kg.

Q: And the ED50 (Mus musculus [5])?
A: The ED50 was 2.5 mg/kg.
